For test [1], the target named is recombinant human kappa (KOR) opioid receptor (Homo sapiens (Human), UniProt P41145). Kind of test: Opioid receptor radioligand binding assay, KOR. To be noted: read-out: KOR, IC50, HEK293 cell membranes, 0.5 nM [3H]diprenorphine.
The target in test [2] is recombinant human mu (MOR) opioid receptor (Homo sapiens (Human), UniProt P35372). The test is described as follows: Opioid receptor radioligand binding assay, MOR. To be noted: read-out: MOR, IC50, HEK293 cell membranes, 0.5 nM [3H]DAMGO.
The target of test [3] is recombinant human delta (DOR) opioid receptor (Homo sapiens (Human), UniProt P41143). Kind of test: Opioid receptor radioligand binding assay, DOR. Particulars: read-out: DOR, IC50, HEK293 cell membranes, 0.5 nM [3H]DADLE.

Amino acid sequences for entries named in this document (tags omitted).
UniProt P41145, whole entry: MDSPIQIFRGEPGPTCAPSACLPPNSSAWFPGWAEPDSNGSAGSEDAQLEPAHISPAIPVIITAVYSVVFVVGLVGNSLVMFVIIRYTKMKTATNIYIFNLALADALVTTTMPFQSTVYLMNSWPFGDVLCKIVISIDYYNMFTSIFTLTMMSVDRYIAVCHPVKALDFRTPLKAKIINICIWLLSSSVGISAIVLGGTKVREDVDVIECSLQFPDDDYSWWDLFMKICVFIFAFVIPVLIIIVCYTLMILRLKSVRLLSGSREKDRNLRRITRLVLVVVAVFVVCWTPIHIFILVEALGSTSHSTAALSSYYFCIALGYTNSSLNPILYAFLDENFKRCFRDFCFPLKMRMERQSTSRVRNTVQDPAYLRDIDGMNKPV
UniProt P35372, whole entry: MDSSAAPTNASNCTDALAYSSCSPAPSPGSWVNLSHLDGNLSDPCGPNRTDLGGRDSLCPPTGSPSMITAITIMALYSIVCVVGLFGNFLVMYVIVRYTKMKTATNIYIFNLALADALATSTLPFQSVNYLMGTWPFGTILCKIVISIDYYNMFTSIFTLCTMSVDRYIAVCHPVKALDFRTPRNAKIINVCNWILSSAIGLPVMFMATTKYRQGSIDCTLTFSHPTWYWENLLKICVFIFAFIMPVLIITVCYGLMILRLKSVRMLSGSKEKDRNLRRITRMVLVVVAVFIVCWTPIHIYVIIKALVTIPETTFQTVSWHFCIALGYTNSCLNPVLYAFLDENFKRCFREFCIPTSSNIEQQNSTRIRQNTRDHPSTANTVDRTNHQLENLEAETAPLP
UniProt P41143, whole entry: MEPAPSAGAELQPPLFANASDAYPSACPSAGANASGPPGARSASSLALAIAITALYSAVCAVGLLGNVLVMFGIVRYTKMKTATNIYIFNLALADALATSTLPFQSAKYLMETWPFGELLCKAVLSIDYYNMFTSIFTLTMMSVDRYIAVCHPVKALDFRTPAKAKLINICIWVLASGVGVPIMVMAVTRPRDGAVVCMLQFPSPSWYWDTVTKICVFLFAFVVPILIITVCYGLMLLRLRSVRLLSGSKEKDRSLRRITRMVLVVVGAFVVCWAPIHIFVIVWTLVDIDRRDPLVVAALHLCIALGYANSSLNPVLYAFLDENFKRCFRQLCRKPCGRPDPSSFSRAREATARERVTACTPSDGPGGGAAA

Molecules are shown by their SMILES. Where two headings read alike, the source gives them in different places.

By IC50 is commonly meant the midpoint of a concentration-inhibition curve.

With `CC(C)C[C@@H](NC(=O)[C@@H](Cc1ccccc1)NC(=O)C1(N)Cc2ccccc2C1)C(=O)N[C@H](CCCCN)C(=O)N1CCC(N)(C(=O)O)CC1`, the values for the concentration for half-maximal inhibition (IC50) in test [1] (tested form: 3HCl), in test [2] (tested form: 3HCl) and in test [3] (tested form: 3HCl) were 0.0169 µM, > 10 µM and > 10 µM, respectively.
With `CC(C)C[C@H](NC(=O)[C@@H]1Cc2ccccc2CN1C(=O)[C@H](N)Cc1ccccc1)C(=O)N[C@H](CCCCN)C(=O)N1CCC(N)(C(=O)O)CC1`, the half-inhibitory concentration (IC50) in test [1] (tested form: TFA) is 0.123 µM; in test [2] (tested form: TFA) it was > 10 µM; in test [3] (tested form: TFA), > 10 µM.

These data come from patent US12215173B2, “Kappa opioid receptor peptide amide ligands” (priority 2019, dated 2025).
